Results reported in paper PMC6966663 (Cancers, 2019).

Conditions: in vivo

NC(=O)c1ccc2nc(-c3ccc(C4(N)CCC4)cc3)c(-c3ccccc3)n2n1 [BAY 1125976]
Patients with TEAEs CTCAE Grade 1 or Grade 2 (human): Eighteen (22.8%) patients
Patients with TEAEs CTCAE Grade 3 or Grade 4 (human): 52 (65.8%) patients
Patients with TEAEs leading to dose modification (human): Forty-five (57.0%) patients
Patients with drug-related TEAEs (human): 69 (87.3%) patients
Cases of Grade 3 rash: one
Deaths during the treatment period or within the 30 days safety follow-up: Six
Patients with on-target Grade 3 hyperglycemia: one
SAEs considered drug-related: Six
